Measured affinities in a library of Ab-14 heavy chain variants

Reference: Engelhart et al. 2022, doi:10.1038/s41597-022-01779-4. File: FLAb, binding data.

The target is the same throughout: PDVDLGDISGINAS, from the HR2 region of SARS-CoV-2 spike.

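The starting antibody came from a phage panning campaign against this peptide. The library (AAYL49) carries one to three amino acid substitutions per variant, with no insertions or deletions. AlphaSeq pools MATa yeast showing the antibodies with MATalpha yeast showing the peptide. Mating (16 h, 30 °C) was followed by selection of diploids and sequencing of their barcodes. Read counts were normalised to the haploid input and turned into Kd by a linear fit to BCL2-family pairs of known affinity, for each replicate. There are three technical replicates.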

Parent scFv Ab-14: VH joined to VL by the linker GGGGSGGGGSGGGGS. Changes lie in the heavy chain CDRs alone.
VH: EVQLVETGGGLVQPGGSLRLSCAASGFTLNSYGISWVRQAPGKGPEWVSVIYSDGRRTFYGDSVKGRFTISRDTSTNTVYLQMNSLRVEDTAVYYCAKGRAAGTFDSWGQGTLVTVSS
VL: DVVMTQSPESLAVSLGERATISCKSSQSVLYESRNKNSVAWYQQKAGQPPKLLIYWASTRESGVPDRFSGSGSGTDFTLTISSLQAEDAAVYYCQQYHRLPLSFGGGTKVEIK

Each variant is given by its three heavy chain CDRs, as the data file delimits them; those of the parent are GFTLNSYGIS, VIYSDGRRTFYGDSVK, GRAAGTFDS. Numbers give log10(Kd / nM), so 0 is 1 nM and 3 is 1 µM. Smaller is tighter. "ND" means that the variant was in the library but no mating with the target was seen in that replicate; the authors take this as a sign of poor binding, and no number exists. In this assay the parent's reference entry averaged 0.65; its copy inside this library read 4.11 (one replicate of three). Three control strains display no target. For library AAYL49, 15% of the pairings with them gave a signal, with a median of 4.06 and one signal in twenty below 2.83, so weak values seen in few replicates may be background. Also given: how often the same scFv was detected with the empty control strains, with their mean in brackets.

CDR-H1	CDR-H2	CDR-H3	log10 Kd, replicates	signal with controls
GFTLNSYGIS	VIYSDGRFTFYGSSVK	GRAAGTFDT	4.03 ND ND	0 of 9
GFTLNSYGIS	VWYSIGRRTFVGDSVK	GRAAGTFDS	ND ND ND	0 of 9
GFTLNSYGIS	VIYSDGRRTFYGDSVK	LRAAGAFVS	ND ND ND	0 of 9
GFTLNSYGMS	VIYSDGRRTFYGDGVK	DRAAGTFDS	4.76 3.83 3.63	6 of 9 (4.91)
GFTLNSYGIS	VIYSDGRRTFCGDVVK	GRAAATFDS	ND ND ND	1 of 9 (3.92)
GFTLNSAGIS	VIYSDWRRTFYGDSVK	GRAAGTFDN	4.56 ND 4.62	3 of 9 (4.05)
GFTLNSVGIS	VIYSDGRRDFYKDSVK	GRAAGTFDS	ND 4.36 ND	0 of 9
GFTLNSYGIS	VIYSDGRRTFYGDSVK	GRPWGTFDN	5.62 2.86 4.66	4 of 9 (4.16)
GFTLNSYVIS	VIYSDGRRTFYGDSVT	GRAAGTWDS	ND ND ND	1 of 9 (3.15)
GFTLNSYGKS	VIYSQGRRTFYGESVK	GRAAGTFDS	ND ND ND	4 of 9 (4.22)
GFTLNSYGDS	VIYSDGRRTFYGDSRK	GRAAGTFDS	ND ND ND	0 of 9
GFTLNSYGIS	VIYSDGRRTGHGDSVK	GRASGTFDS	ND ND ND	2 of 9 (4.11)
GFTLNSYGIS	VIYSNGRRTFYGDSVK	GMAAGIFDS	3.47 3.60 ND	1 of 9 (3.63)
GFTLNSYKIS	VICSDGRRTFYGDSVK	GRAAGRFDS	ND 4.19 ND	1 of 9 (4.36)
GFTLNSYGIS	VIYSDGERTFYGDHVK	SRAAGTFDS	4.15 3.17 ND	1 of 9 (3.56)

The remaining entries, values ahead:

log10 Kd, replicates	signal with controls	CDR-H1	CDR-H2	CDR-H3
0.68 0.84 0.81	3 of 9 (4.91)	GFPLNSYGIS	VIYSDGRRTFYGDSVK	GRAAGHFDS
2.57 ND 3.24	2 of 9 (3.67)	GFTANSYGIS	VIYSDGRRTFYGDSVK	GHAAGTLDS
ND ND ND	1 of 9 (4.11)	GFTLNSYGIS	VIYSDGRRTFVNDSVF	GRAAGTFDS
3.57 ND ND	0 of 9	GFTLKSYGIS	VIYSFGRRTFYGDSVK	GRAAGTFDS
3.34 3.57 ND	2 of 9 (3.78)	GFTLNSYGPS	VIYSDSRRTFRGDSVK	GRAAGTFDS
3.93 ND ND	0 of 9	LFTLSSYGIS	VIYSDGRRTFYGDSYK	GRAAGTFDS
2.08 1.79 2.00	1 of 9 (3.61)	CFTLNSYGIS	VIYSDGRRTFYGDSVM	GRAAGTFCS
ND ND ND	0 of 9	GFTLNSYGGR	VIYSDGRRTFYGDSCK	GRAAGTFDS
0.38 0.80 0.53	0 of 9	GFTLNMYGIS	VIYSDGRRTFYGDSVK	GRHAWTFDS
3.90 4.54 ND	5 of 9 (4.05)	GFTLNSYSIS	VIYSDGRRTFTGDSVK	GRALGTFDS
ND ND ND	0 of 9	GFTLNSYHIS	MIYSDERRTFYGDSVK	GRAAGTFDS
ND 3.78 ND	0 of 9	GFTLNSYGIS	VIYYDGRRTFYGDSEK	GRPAGTFDS
ND 5.13 ND	2 of 9 (3.46)	GFTSNSYGFS	VIYSDGRRTFYGQSVK	GRAAGTFDS
1.24 1.35 1.27	1 of 9 (4.37)	GFLLNEWGIS	VIYSDGRRTFYGDSVK	GRAAGTFDS
3.56 4.03 5.63	6 of 9 (4.34)	GFTLNSYAIS	VIYSDGRRTFYGNSVK	GRAAGEFDS
3.49 2.35 3.19	2 of 9 (4.81)	GFTLNSYGIS	VIYSDGRRTFYGTSCK	GRLAGTFDS

Picked from the list: the 4 lowest averages where every replicate gave a value.

CDR-H1,CDR-H2,CDR-H3,"log10 Kd, replicates",signal with controls
GFTLNMYGIS,VIYSDGRRTFYGDSVK,GRHAWTFDS,0.38 0.80 0.53,0 of 9
GFPLNSYGIS,VIYSDGRRTFYGDSVK,GRAAGHFDS,0.68 0.84 0.81,3 of 9 (4.91)
GFLLNEWGIS,VIYSDGRRTFYGDSVK,GRAAGTFDS,1.24 1.35 1.27,1 of 9 (4.37)
CFTLNSYGIS,VIYSDGRRTFYGDSVM,GRAAGTFCS,2.08 1.79 2.00,1 of 9 (3.61)